According to patent publication EP2322194A2 (Reprise Biopharmaceutics, LLC, priority 2003, dated 2005):
Read-outs that look alike come from different tables or passages of the source.

Columns and labels:
[1] = in vivo
Description: Twenty-four healthy non-smoking male volunteers were enrolled in the present study. The study was designed as a one-centre, open-labelled, randomized, balanced, 4-way cross-over phase I study. […] Between the doses there was a washout period of 72 hours. In order to standardize the buccal mucosa before administration of the orodispersible tablet, the subjects were asked to avoid foods, chewing gun etc. Subjects were allowed to brush their teeth in the morning before dosing, but without toothpaste.
3.2 (Pharsight Corporation, US). […] Values below LOQ not followed by values above the LOQ are excluded from the NCA analysis, and set to zero in the descriptive statistics on concentrations.

[2] = in vivo, cited from earlier work
[3] = in vivo; cited from earlier work

- bioavailability [1]: 0.30%
- bioavailability, 95% confidence interval [1]: 0.23-0.38%
- mean clearance ([1]; iv): 8.5 dm^3/hr
- mean volume of distribution at steady state (Vss) ([1]; iv): 29.7 dm^3
Substance: 1-desamino-8-D-arginine vasopressin [desmopressin]
- % Bioavailability ([2]; sc): ~90%
- % Bioavailability [2]: 3-5%
- absorption [3]: not significantly absorbed
